Earlier results on one substance are cited in article PMC7082075.

Amino acid sequences for entries named in this document (tags omitted). A change or cut given only in a name is not applied to a line headed by its entry.
UniProt P49281: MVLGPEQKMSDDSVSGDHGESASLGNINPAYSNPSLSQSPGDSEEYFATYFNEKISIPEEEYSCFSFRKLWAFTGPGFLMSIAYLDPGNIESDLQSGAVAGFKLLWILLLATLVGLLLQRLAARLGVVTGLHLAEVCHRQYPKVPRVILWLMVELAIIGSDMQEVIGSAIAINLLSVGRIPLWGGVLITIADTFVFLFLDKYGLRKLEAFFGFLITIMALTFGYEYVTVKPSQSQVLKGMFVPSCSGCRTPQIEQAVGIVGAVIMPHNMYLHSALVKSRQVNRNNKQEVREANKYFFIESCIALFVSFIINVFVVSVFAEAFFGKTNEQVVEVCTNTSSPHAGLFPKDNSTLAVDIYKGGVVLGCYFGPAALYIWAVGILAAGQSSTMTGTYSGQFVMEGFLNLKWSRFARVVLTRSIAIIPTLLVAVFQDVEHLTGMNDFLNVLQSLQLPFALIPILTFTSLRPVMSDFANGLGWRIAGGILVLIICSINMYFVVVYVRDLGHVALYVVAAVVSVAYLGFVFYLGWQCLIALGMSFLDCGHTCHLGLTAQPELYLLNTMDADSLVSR

The data set addresses DMT1-II (Homo sapiens) (UniProt P49281). As to conditions: cited from earlier work.

Regarding “SNX3-retromer (SNX3/VPS35/VPS26) (from UniProt O60493)”, the Kd (in general, the concentration at which binding is half-saturated) was 127 µM.
